## Membrane permeability of cyclic peptides

Data: CycPeptMPDB; original report Nielsen et al. 2015, doi:10.1002/cbic.201500441.

PAMPA measures passive passage through an artificial lipid membrane. Permeability is in 10^-6 cm/s, converted from the database's log10 values; higher is more permeable. Entries marked < or ≤ lay at or below the stated limit.

{"smiles": "CC(C)C[C@@H]1NC(=O)[C@H](CC(C)C)N(C)C(=O)[C@H]2CCCN2C(=O)[C@H](CC(C)C)NC(=O)[C@H](Cc2ccc(O)cc2)N(C)C(=O)[C@H]2CCCN2C1=O", "PAMPA (10^-6 cm/s)": "6.8"}
{"smiles": "CC(C)C[C@@H]1NC(=O)[C@H](Cc2ccc(O)cc2)N(C)C(=O)[C@@H](CC(C)C)N(C)C(=O)[C@H](CC(C)C)NC(=O)[C@H](CC(C)C)N(C)C(=O)[C@@H](CC(C)C)N(C)C1=O", "PAMPA (10^-6 cm/s)": "< 0.1"}

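The data file gives no further conditions (lipid, pH, time, direction or concentration), and values from different papers need not be comparable. The list need not hold all peptides of the study. Peptides that the database sets to -10, its floor, are left out.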